Experimental data reported in patent publication US5792796A, “Methods for treating anxiety and panic” (Warner-Lambert Company, priority 1995, dated 1998).
Read-outs that look alike come from different tables or passages of the source.

Assays:
[1] = test system: male TO mice; settings: 40 minutes before test
Description: (§1) Male Hooded Lister rats (200-250 g) were obtained from Interfauna (Huntingdon, UK) and male TO mice (20-25 g) were obtained from Bantin and Kingman (Hull, UK). Both rodent species were housed in groups of six. Ten Common Marmosets (Callithrix Jacchus) weighing between 280 and 360 g, bred at Manchester University Medical School (Manchester, UK) were housed in pairs. All animals were housed under a 12-hour light/dark cycle (lights on at 07.00 hour) and with food and water ad libitum.
The small compartment was painted black and the large compartment white.

[2] = test system: Common Marmosets (Callithrix Jacchus); settings: 10-300 mg/kg SC, 40 minutes before test
Description: as §1

[3] = test system: male Hooded Lister rats
Description: as §1

[4] = test system: rats; assay: Rat conflict test
Description: as §1
Rats were trained to press levers for food reward in operant chambers. The schedule consisted of alternations of four 4-minute unpunished periods on variable interval of 30 seconds signalled by chamber lights on and three 3-minute punished periods on fixed ratio 5 (by footshock concomitant to food delivery) signalled by chamber lights off. The degree of footshock was adjusted for each rat to obtain approximately 80% to 90% suppression of responding in comparison with unpunished responding. Rats received saline vehicle on training days.
The results are expressed as mean percent increase or decrease of lever pressing (vertical bars represent ±SEM) of at least 5 animals per group on test day compared with mean performances obtained the 2 previous days following vehicle administration.
*p <0.05, **p <0.01 (paired Student t-test).

[5] = test system: GABAA receptors; settings: cited from earlier work
[6] = test system: GABAB receptors; settings: cited from earlier work
[7] = 3-100 mg/kg SC, 40 minutes before test

With NCC1(CC(=O)O)CCCCC1 [gabapentin, 1-(aminomethyl)cyclohexaneacetic acid] the “time spent by mice in the illuminated side of the box” value (“time spent by mice” for short) ([1]; 10 mg/kg IP) was “increased”, the “time spent by mice” value ([1]; 30 mg/kg IP) was “increased” and the “time spent by mice” value ([1]; 100 mg/kg IP (highest dose)) was “the effect disappeared”. For the same compound, the “number of postures emitted by marmosets in response to a human threat” value [2] was “decreased”, the total entries ([3]; 30 mg/kg SC) was “increase” and the “percent entries (%EEOA) made onto the end half sections of the open arms” value [3, 7] was “increased”. The “percent time spent (%TEOA) on the end half sections of the open arms” value [3, 7] was “increased”, the “increase in lever pressing in the punished period” value ([4]; 3 mg/kg (minimum effective dose), 40 minutes before test) was 65% and the “maximal effect, increase in lever pressing in the punished period” value ([4]; 30 mg/kg, 40 minutes before test) was 179%. For the same compound, the minimal effective dose ([4]; Rattus norvegicus, 40 min, read-out: minimum effective dose (MED) for increased lever pressing in the punished period) was 3 mg/kg, the “anticonvulsant and anxiolytic activity in the presence of D-serine” value was “can be reversed by D-serine” and the “interaction with GABAA receptors” value [5] was “does not interact”. For the same compound, the “interaction with GABAB receptors” value [6] was “does not interact”.
